Test results as given in patent US4520101A (priority 1983, dated 1985).

How the values were obtained:
[1] = test system: Cephalosporium acremonium (a high ceph C-producing mutant strain which also produces desacetyl ceph C); experiment: Shake flask fermentation, inhibitors added at day 4 (Example 1); format: cell-based; settings: broth after six days
[2] = test system: desacetylcephalosporin C production; experiment: Fermentors, additional phosphorous compounds (Example 7)
[3] = 600 ppm added at day 4 (96 hours)
[4] = 1600 ppm added at day 4 (96 hours)

## CC(C)OP(OC(C)C)OC(C)C
[1]; [3]
  Ceph C: 8995 µg/g
  Des C/Total Ceph Nucleus (Ceph C + Des Ceph C): 5.56%
  Des Ceph C: 530 µg/g
[1]; [4]
  Ceph C: 11,000 mcg/g
  Des C/Total Ceph Nucleus (Ceph C + Des Ceph C): 4.96%
  Des Ceph C: 575 µg/g
[2]
  inhibitory activity with respect to desacetylcephalosporin C production: exhibited inhibitory activity

Only a part of the results on these compounds is given; other tests are left out.
